Test results as given in US9802929B2, “Benzo five-membered nitrogen heterocyclic piperidine or piperazine derivatives and preparation methods and pharmaceutical compositions thereof” (Shenyang Haiwang Biotechnology Co., Ltd., priority 2012, dated 2017).

System: 5-HT2A receptors
Test: Antagonism of 5-HT cumulative contraction of rabbit aorta, pA2

Structure (SMILES): FC(F)(F)c1cccc(N2CCN(CCCCn3cnc4ccccc43)CC2)c1 [Compound II-36, 1-(4-(4-(3-trifluoromethylphenyl)piperazin-1-yl)butyl)-1H-benzimidazole]
- PA2 value against 5-HT contraction: 5.71±0.08
